From patent US20240408180A1, “IONIC LIQUIDS FOR DRUG DELIVERY” (PRESIDENT AND FELLOWS OF HARVARD COLLEGE, priority 2021, published 2024)

Details: rat, in vivo, sc

## acetylcholinium hexenoate DES [aCH]
  AUC at day 21, higher than the saline control: 103%
  AUC versus saline control: higher AUC
